In BindingDB's records for doi:10.1021/ja038606l (Fujisawa Pharmaceutical, 2004):
pKi: −log10 of the molar value.

molecular target: T1, Adenosine deaminase (Homo sapiens, UniProt P00813)
T1 sequence (P00813 whole entry): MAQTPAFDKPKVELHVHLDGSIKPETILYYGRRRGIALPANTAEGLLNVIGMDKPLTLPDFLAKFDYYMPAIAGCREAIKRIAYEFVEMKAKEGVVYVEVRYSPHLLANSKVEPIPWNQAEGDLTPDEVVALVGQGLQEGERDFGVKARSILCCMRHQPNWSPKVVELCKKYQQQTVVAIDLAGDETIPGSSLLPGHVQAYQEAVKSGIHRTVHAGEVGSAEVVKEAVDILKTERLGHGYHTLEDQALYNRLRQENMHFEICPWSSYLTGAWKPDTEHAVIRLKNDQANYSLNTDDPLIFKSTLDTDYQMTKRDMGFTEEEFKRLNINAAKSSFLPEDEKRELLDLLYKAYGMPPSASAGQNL

| Compound | pKi |
| --- | --- |
| NC(=O)c1cn([C@@H](CO)CCc2cccc3ccccc23)cn1 | 6.17 |
| Cn1c(CCC(=O)Nc2ccc3ccn(CC[C@H](CO)n4cnc(C(N)=O)c4)c3c2)nc2ccccc21 [1-[(2R)-1-hydroxy-4-{6-[3-(1-methyl-1H-1,3-benzodiazol-2-yl)propanamido]-1H-indol-1-yl}butan-2-yl]-1H-imidazole-4-carboxamide] | 8.11 |
| NC(N)=Nc1nc(-c2ccc(CNc3nc4ccccc4[nH]3)s2)cs1 [2-(4-{5-[(1H-1,3-benzodiazol-2-ylamino)methyl]thiophen-2-yl}-1,3-thiazol-2-yl)guanidine] | 5.92 |
